Assay: Measurement of phosphate binding M4: 1 g in 25 ml 40 mmol l^-1 phosphate buffer, pH 3-8 (Examples 3 and 4)
Details: Table 10 (Example 4)

Anhydrous calcium sulphate [Anhydrous CaSO4]
Percentage phosphate bound at pH 3 (pH 3): 2% | Percentage phosphate bound at pH 5 (pH 5): 7% | Percentage phosphate bound at pH 7 (pH 7): 47% | Percentage phosphate bound at pH 8 (pH 8): 55%

Reference: patent publication US20140120180A1, “METAL COMPOUNDS MIXED OR SULPHATED, AS PHOSPHATE BINDERS” (CYTOCHROMA DEVELOPMENT INC., priority 1997, published 2014)
